For one substance, lysis of erythrocytes results are on record in patent publication US12642886B2, “POSS viscoelastic hemostatic agents” (Hybrid Plastics, Incorporated, priority 2019, dated 2026).

The subject of this data set is erythrocytes.

Turning to “trisilanol hepta-isoOctyl POSS [i-octylPOSS trisilanol]”, the lysis of erythrocytes entry is on record as “do not lyse erythrocytes”.
